These results are taken from ChEMBL document CHEMBL4732251, “Synthesis and evaluation of the epithelial-to- mesenchymal inhibitory activity of indazole-derived imidazoles as dual ALK5/p38α MAP inhibitors” (Eur J Med Chem, 2021).

The target in assay [1] is T1, TGF-beta receptor type-1 (Homo sapiens) (UniProt P36897).
T1 sequence (whole entry): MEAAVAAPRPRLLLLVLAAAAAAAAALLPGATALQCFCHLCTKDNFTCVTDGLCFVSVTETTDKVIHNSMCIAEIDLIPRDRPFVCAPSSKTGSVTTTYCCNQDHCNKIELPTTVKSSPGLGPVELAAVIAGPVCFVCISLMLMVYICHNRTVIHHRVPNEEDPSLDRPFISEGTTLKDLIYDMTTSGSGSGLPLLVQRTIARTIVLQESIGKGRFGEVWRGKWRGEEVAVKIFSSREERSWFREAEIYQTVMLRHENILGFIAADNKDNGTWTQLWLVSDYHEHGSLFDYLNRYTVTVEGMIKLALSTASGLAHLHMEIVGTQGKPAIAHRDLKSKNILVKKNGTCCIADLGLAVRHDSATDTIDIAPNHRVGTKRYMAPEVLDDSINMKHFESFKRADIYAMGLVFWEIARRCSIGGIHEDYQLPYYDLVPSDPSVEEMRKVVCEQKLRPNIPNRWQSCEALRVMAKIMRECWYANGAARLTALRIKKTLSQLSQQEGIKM
Put plainly: Potency index, ratio of LY-2157299 IC50 to test compound IC50 for recombinant human GST-fused ALK5 expressed in baculovirus infected Sf9 cells assessed as incoporation of [33]Pi after 60 mins in presence of [gamma-33P]-ATP by microplate scintillation counter method.

Assay [2] has as its target T1, TGF-beta receptor type-1 (Homo sapiens). Put plainly: Potency index, ratio of EW-7197 IC50 to test compound IC50 for recombinant human GST-fused ALK5 expressed in baculovirus infected Sf9 cells assessed as incoporation of [33]Pi after 60 mins in presence of [gamma-33P]-ATP by microplate scintillation counter method.

Structures are written as SMILES.

For the compound `Cc1cccc(-c2[nH]c(CNc3cccc(F)c3)nc2-c2ccc3[nH]ncc3c2)n1`, the Ratio IC50 in assay [1] came out at 32.3; in assay [2] it was 3.5.
